Values quoted from earlier work, collected in PubChem BioAssay AID1811 (Shanghai Institute of Organic Chemistry, 2009).
Some of the results follow. Calls of active or inactive are those of the source. Where no limit is named, active and inactive come without a cut-off here.

System: 3-phosphoinositide dependent protein kinase 1
Experiment: PubChem AID 1811
Conditions: PDB complex binding affinities from literature

Compound | outcome
Cn1cc(C2=C(c3cn(CCCN)c4ccccc34)C(=O)NC2=O)c2ccccc21 | active
CN(C)CCCn1cc(C2=C(c3c[nH]c4ccccc34)C(=O)NC2=O)c2ccccc21 | active
